Values of other authors in patent publication US6444700B1, “Product and method to reduce stress induced immune suppression” (Abbott Laboratories, priority 1998, dated 2002).

Settings: animal toxicity studies

## fructooligosaccharides [FOS]
  toxicity, mutagenicity or carcinogenic effects: no evidence of toxicity, mutagenicity or carcinogenic effects
